{"sequences": {"note": "Amino acid sequences for entries named in this document (tags omitted). Residues count along the entry.", "UniProt P00746, 26-253": "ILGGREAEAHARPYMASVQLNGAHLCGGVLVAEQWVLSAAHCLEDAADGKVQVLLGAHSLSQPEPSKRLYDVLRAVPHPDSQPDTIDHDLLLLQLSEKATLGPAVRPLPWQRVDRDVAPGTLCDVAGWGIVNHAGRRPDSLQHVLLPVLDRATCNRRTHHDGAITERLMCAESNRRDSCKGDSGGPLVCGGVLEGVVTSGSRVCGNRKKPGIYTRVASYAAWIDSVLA"}, "source": "patent US20230126447A1", "about": "“OCULAR DRUG DEPOT FOR COMPLEMENT-MEDIATED DISORDERS” (priority 2020, published 2023)", "biological_target": "CFD (Homo sapiens, UniProt P00746)", "test": "Inhibitory effect on CFD", "type": "biochemical", "data": [{"compound": "CC(=O)c1nn(CC(=O)N2[C@H](C(=O)Nc3nc(Br)ccc3C)C[C@@]3(C)C[C@@H]23)c2ccc(-c3cnc(C)nc3)cc12", "note": "[Compound 2, (1R,3S,5R)-2-(2-(3-acetyl-5-(2-methylpyrimidin-5-yl)-1H-indazol-1-yl)acetyl)-N-(6-bromo-3-methylpyridin-2-yl)-5-methyl-2-azabicyclo[3.1.0]hexane-3-carboxamide]", "values": [{"measurement": "IC50", "result": 26.8, "unit": "nM"}]}]}
